Data reported in patent US7144452B2, “Ink jet black ink, ink set, ink jet recording method, ink cartridge, recording unit, and ink jet recording apparatus” (Canon Kabushiki Kaisha, priority 2004, dated 2006).

Test: Relative permittivity of water-soluble organic solvent (LCR meter)
Settings: room temperature of 20° C.

- Relative permittivity (measurement frequency: 1 MHz): 10.3
Structure (SMILES): CCCCOCCOCCO
